Measured values as given in US9957484B2, “Methods for promoting cell reprogramming” (Sanford-Burnham Medical Research Institute, priority 2011, dated 2018).

Legend:
Type in all cases: cell-based, mouse
[1] = tested on: 4F-transduced Oct4-GFP MEFs; experiment: Kinase inhibitor treatment of 4F-transduced Oct4-GFP MEFs, Oct4-GFP+ colony count (reprogramming efficiency); conditions: 4F plus p53 shRNA, inhibitor from day 3, GFP+ colonies at day 12
[2] = tested on: 4F-infected MEFs; experiment: Cell proliferation assay (Celltiter 96 aqueous), 4F-infected MEFs; conditions: 4F-transduced MEFs, 0.5 μM
Method: (§1) FIGS. 14A-14D are a series of tabular and graphical representations depicting essential hits that block the reprogramming process. FIG. 14A is a table listing essential hits that are not Cdk inhibitors. FIG. 14B is a graph showing proliferation of wild-type MEFs is altered by inhibitor treatment. MEFs were treated with drugs at 2 μM and proliferation was assayed by using the Celltiter 96™ aqueous method (Promega). Y-axis represents the absorbance at 490 nm to detect formazan, which is converted from MTS tetrazolium by living cells. A higher reading indicates increased cell number. FIG. 14C is a graph showing proliferation of 4F-transduced MEFs was also altered by drug treatment. FIG. 14D is a histogram showing that reprogramming efficiency was decreased by drug treatment. Oct4-GFP+ colonies were quantified at day 13.
(§2) FIG. 16A is a graph plotting relative cell viability. […] Proliferation of cells was analyzed every other day using the Celltiter 96™ aqueous method (Promega). […]
(§3) Cell proliferation assay: 3000 MEFs were seeded in each well in 96-well plates and transduced with 4F virus for three days. […] Absorbance at 490 nm was then measured for each well using a plate reader, and data was used to generate relative proliferation curves using the signal from day 3 post-transduction as a reference.

[3] = tested on: uninfected MEFs; experiment: Cell proliferation assay (Celltiter 96 aqueous), uninfected MEFs; conditions: 0.5 μM
Method: as §1, §2, §3

O=C(Nc1cccc(Nc2nccc(Nc3cccc(C(F)(F)F)c3)n2)c1)C1CC1 [BIM-0086660]
iPSC generation when p53 is silenced by shRNA [1]: equivalent in inhibitor-treated and -untreated conditions | proliferation [2]: did not significantly promote proliferation | proliferation [3]: did not significantly promote proliferation
